Test results from patent US8569472B2, “Efficient cell culture system for hepatitis C virus genotype 6A” (priority 2007, dated 2013).

System: JFH1-based recombinants of genotypes 1a, 1b, 2a, 2b, and 6a
Format: cell-based, hepatitis C virus
Settings: 500 IU/mL interferon-α2b, 20 μM ribavirin or 50 μM amantadine

In the case of interferon-α2b, the “antiviral effect of treatment (infected cells and supernatant HCV RNA titers)” value is reported as “antiviral effect” and the “decrease in supernatant HCV RNA titers” value (72 hrs, Huh7.5 cultures infected with genotype 1a/1b, 2a/2b and 6a recombinants) is reported as ~2 log.
